The source of these data is patent US12076341B2, “Use of apoptotic compensatory proliferation signaling vesicles in tissue repair and wound healing” (Rush University Medical Center, priority 2018, dated 2024).

In the experiment the test system is Hela cells. As to the kind of experiment: Necrotic cell death of HeLa cells: vesicle production and CPS. The following applies: treatment with 0.5 mM MNNG.

For the molecule `CN(N=O)C(=N)N[N+](=O)[O-]`, the “production of Crkl-containing ACPSVs by necrotic HeLa cells” value is given as “did not produce”. Further, the “compensatory proliferation in adherent Hela cells by 16K fraction of necrotic cells” value (cell counts 24 h) is given as “failed to induce compensatory proliferation”.
